# Binding of CDR-mutated scFvs to a peptide of the spike HR2 region

The measurements come from Engelhart et al. 2022 (doi:10.1038/s41597-022-01779-4) through the FLAb antibody collection.

Binding partner: SARS-CoV-2 spike HR2 peptide, sequence PDVDLGDISGINAS.

The variants keep the light chain, the linker and the frameworks of Ab-14 (scFv order VH, a (GGGGS)3 linker, VL).
VH: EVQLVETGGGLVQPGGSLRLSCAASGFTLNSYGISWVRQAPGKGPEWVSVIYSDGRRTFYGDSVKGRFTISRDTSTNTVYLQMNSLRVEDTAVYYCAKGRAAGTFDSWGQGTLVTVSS
VL: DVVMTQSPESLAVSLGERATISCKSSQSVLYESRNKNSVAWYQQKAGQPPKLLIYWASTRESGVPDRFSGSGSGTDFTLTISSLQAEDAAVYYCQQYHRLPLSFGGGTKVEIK

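Phage display of a naive human antibody library on the peptide gave the parent. In library AAYL49, one, two or three CDR residues were substituted; doubles and triples were drawn at random. In AlphaSeq, yeast of one mating type display the scFv and yeast of the other type display the target. Mating (16 h, 30 °C) was followed by selection of diploids and sequencing of their barcodes. Scores were corrected for input abundance and mapped to Kd with protein pairs of known affinity run in the same pool. Mating was done three times.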

Substitutions are numbered in sequence along the VH above, starting at 1 (not Kabat). This list gathers variants with a substitution at G61 (VH, numbered from residue 1). Each Kd is an estimate from the mating assay, the geometric mean of the replicates in which the pair was seen; lower is stronger. A pair that was not seen in any replicate is written "no signal"; this usually means weak binding, but a binder can also be missed. In this assay the parent's reference entry averaged 4.4 nM; its copy inside this library read 13 µM (one replicate of three). Background: pairings of library AAYL49 with three empty control strains gave a value in 15% of cases (median 11 µM, 5th percentile 680 nM). Values in that range, when seen in few replicates, are hard to tell from nonspecific mating. For each scFv, signals with the empty controls are counted beside the result.

- S53V R57G G61E -> 2.0 µM (1 of 3 replicates; controls 0 of 9)
- I51C G61I G103R -> 13 µM (3 of 3 replicates; controls 9 of 9)
- G61Q -> 11 nM (3 of 3 replicates; controls 2 of 9)
- Y60C G61R K65L -> 180 nM (3 of 3 replicates; controls 5 of 9)
- G33T R57P G61D -> 11 µM (1 of 3 replicates; controls 0 of 9)
- I51P G61Q -> no signal (0 of 3 replicates; controls 1 of 9)
- T58Y G61Y A102W -> 1.4 µM (1 of 3 replicates; controls 1 of 9)
- G26V Y32L G61D -> 36 µM (1 of 3 replicates; controls 2 of 9)
- G26K S35T G61S -> no signal (0 of 3 replicates; controls 0 of 9)
- T58N G61N D62K -> no signal (0 of 3 replicates; controls 1 of 9)
- R56C Y60H G61E -> no signal (0 of 3 replicates; controls 0 of 9)
- F27I G61M A101Y -> 240 nM (1 of 3 replicates; controls 0 of 9)
- S35K G61P S107R -> no signal (0 of 3 replicates; controls 0 of 9)
- D54P G61T A101M -> no signal (0 of 3 replicates; controls 3 of 9)
- Y52P T58N G61A -> 48 µM (1 of 3 replicates; controls 2 of 9)
- V50D F59V G61Y -> no signal (0 of 3 replicates; controls 0 of 9)
- G55H F59G G61F -> no signal (0 of 3 replicates; controls 2 of 9)
- Y52I R57P G61Q -> no signal (0 of 3 replicates; controls 1 of 9)
- G26C G61E -> 250 nM (3 of 3 replicates; controls 3 of 9)
- R57L G61S F105P -> no signal (0 of 3 replicates; controls 0 of 9)
- G33N G61A F105H -> 170 µM (3 of 3 replicates; controls 7 of 9)
- T28Q G33M G61K -> 3.6 µM (1 of 3 replicates; controls 0 of 9)
- V50I S53F G61F -> no signal (0 of 3 replicates; controls 0 of 9)
- S31C I34T G61E -> no signal (0 of 3 replicates; controls 0 of 9)
- R56T G61E G103H -> 560 µM (1 of 3 replicates; controls 1 of 9)
- S31N I51E G61L -> 370 nM (2 of 3 replicates; controls 0 of 9)
- R57I F59G G61D -> 2.6 µM (2 of 3 replicates; controls 1 of 9)
- G61K T104G D106V -> 1.2 µM (1 of 3 replicates; controls 1 of 9)
- F59H G61F -> no signal (0 of 3 replicates; controls 1 of 9)
- G26E G55I G61H -> no signal (0 of 3 replicates; controls 0 of 9)
- V50R G61W D62E -> no signal (0 of 3 replicates; controls 2 of 9)
- G26L R57F G61S -> 89 µM (1 of 3 replicates; controls 2 of 9)
- T28I L29G G61K -> no signal (0 of 3 replicates; controls 3 of 9)
- S31W G61R V64N -> 42 µM (1 of 3 replicates; controls 3 of 9)
- D54G G61K R100M -> no signal (0 of 3 replicates; controls 0 of 9)
- G26M G61P V64F -> 2.3 µM (1 of 3 replicates; controls 3 of 9)
- F27R G61I -> 42 nM (3 of 3 replicates; controls 1 of 9)
- G33C G61C F105K -> 2.0 µM (1 of 3 replicates; controls 0 of 9)
- N30Y V50T G61C -> no signal (0 of 3 replicates; controls 2 of 9)
- I51Q G61E G99R -> 91 µM (1 of 3 replicates; controls 2 of 9)
- F27P G61H -> 12 nM (3 of 3 replicates; controls 4 of 9)
- N30A V50T G61F -> no signal (0 of 3 replicates; controls 1 of 9)

A selection of 7 entries from above:

changes	Kd	seen in	control signals
T28Q G33M G61K	3.6 µM	1 of 3	0 of 9
F27P G61H	12 nM	3 of 3	4 of 9
S35K G61P S107R	no signal	0 of 3	0 of 9
G33C G61C F105K	2.0 µM	1 of 3	0 of 9
I51P G61Q	no signal	0 of 3	1 of 9
T28I L29G G61K	no signal	0 of 3	3 of 9
G55H F59G G61F	no signal	0 of 3	2 of 9